# Permeability data for macrocyclic peptides

Source: CycPeptMPDB (Li et al. 2023), which took these values from Furukawa et al. 2016, doi:10.1021/acs.jmedchem.6b01246.

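The data file gives no further conditions (lipid, pH, time, direction or concentration), and values from different papers need not be comparable. The list need not hold all peptides of the study. Peptides that the database sets to -10, its floor, are left out.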

PAMPA measures passive passage through an artificial lipid membrane. Caco-2: transport across a human colon carcinoma cell monolayer. P is given in units of 10^-6 cm/s (from log10 values with two decimals); larger means faster passage. "n/a" marks a cell with nothing listed here.

SMILES,PAMPA (10^-6 cm/s),Caco-2 (10^-6 cm/s)
CCCCCN1CC(=O)N(C)[C@@H](CC(C)C)C(=O)N[C@@H](CCCC)C(=O)N2CCC[C@@H]2C(=O)N(Cc2cc(CC(C)C)on2)CC(=O)N[C@@H](CC(C)C)C1=O,0.26,n/a
CCCCCN1CC(=O)N(C)[C@@H](CC(C)C)C(=O)N[C@@H](CCCC)C(=O)N2CCC[C@@H]2C(=O)N(Cc2ccc3c(c2)OCO3)CC(=O)N[C@@H](CC(C)C)C1=O,0.28,n/a
CCCC[C@@H]1NC(=O)[C@H](CC(C)C)N(C)C(=O)CN(CCOC)C(=O)[C@H](C)NC(=O)CN(CCCCc2ccccc2)C(=O)[C@H]2CCCN2C1=O,6.5,n/a
CCCC[C@@H]1NC(=O)[C@H](CC(C)C)N(C)C(=O)CN(CCc2cccnc2)C(=O)[C@H](CC(C)C)NC(=O)CN(CCCCc2ccccc2)C(=O)[C@H]2CCCN2C1=O,2.1,n/a
CCCC[C@@H]1NC(=O)[C@H](CC(C)C)N(C)C(=O)CN(CCCc2cnn(C)c2)C(=O)[C@H](C)NC(=O)CN(Cc2ccc3c(c2)OCO3)C(=O)[C@H]2CCCN2C1=O,0.59,n/a
CCCC[C@@H]1NC(=O)[C@H](CC(C)C)N(C)C(=O)CN(CCOc2ccccc2)C(=O)[C@H](Cc2ccc3ccccc3c2)NC(=O)CN(CCN2CCOCC2)C(=O)[C@H]2CCCN2C1=O,0.32,n/a
CCCC[C@@H]1NC(=O)[C@H](CC(C)C)N(C)C(=O)CN(CC2CCCCC2)C(=O)[C@H](Cc2ccccc2)NC(=O)CN(Cc2ccc(Cl)cc2)C(=O)[C@H]2CCCN2C1=O,0.0025,n/a
CCCC[C@@H]1NC(=O)[C@H](CC(C)C)N(C)C(=O)CN(Cc2ccccc2)C(=O)[C@H](C)NC(=O)CN(CC(C)C)C(=O)[C@H]2CCCN2C1=O,10,3.9
CCCC[C@@H]1NC(=O)[C@H](CC(C)C)N(C)C(=O)CN(CCCN2CCCC2=O)C(=O)[C@H](CC(C)C)NC(=O)CN(Cc2ccc(Cl)cc2)C(=O)[C@H]2CCCN2C1=O,2.1,0.68
CCCCCN1CC(=O)N(C)[C@@H](CC(C)C)C(=O)N[C@@H](CCCC)C(=O)N2CCC[C@@H]2C(=O)N(CCC)CC(=O)N[C@@H](CC(C)C)C1=O,5.9,n/a
CCCC[C@@H]1NC(=O)[C@H](CC(C)C)N(C)C(=O)CN(CCCN2CCCC2=O)C(=O)[C@H](CC(C)C)NC(=O)CN(CC(C)C)C(=O)[C@H]2CCCN2C1=O,0.54,n/a
CCCC[C@@H]1NC(=O)[C@H](CC(C)C)N(C)C(=O)CN(CCOc2ccccc2)C(=O)[C@H](C)NC(=O)CN(Cc2ccc(Cl)cc2)C(=O)[C@H]2CCCN2C1=O,0.5,n/a
CCCC[C@@H]1NC(=O)[C@H](CC(C)C)N(C)C(=O)CN(CCCc2cnn(C)c2)C(=O)[C@H](Cc2ccc3ccccc3c2)NC(=O)CN(Cc2cc(CC(C)C)on2)C(=O)[C@H]2CCCN2C1=O,0.14,n/a
CCCC[C@@H]1NC(=O)[C@H](CC(C)C)N(C)C(=O)CN(CC2CCCCC2)C(=O)[C@H](Cc2ccccc2)NC(=O)CN(Cc2ccccc2Cn2cccn2)C(=O)[C@H]2CCCN2C1=O,0.11,n/a
CCCC[C@@H]1NC(=O)[C@H](CC(C)C)N(C)C(=O)CN(CC2CCCCC2)C(=O)[C@H](Cc2ccc3ccccc3c2)NC(=O)CN(CC)C(=O)[C@H]2CCCN2C1=O,0.26,n/a
CCCC[C@@H]1NC(=O)[C@H](CC(C)C)N(C)C(=O)CN(Cc2ccccc2)C(=O)[C@H](Cc2ccccc2)NC(=O)CN(CCCCc2ccccc2)C(=O)[C@H]2CCCN2C1=O,0.0035,n/a
CCCC[C@@H]1NC(=O)[C@H](CC(C)C)N(C)C(=O)CN(CCCc2ccccc2)C(=O)[C@H](C)NC(=O)CN(Cc2ccc3c(c2)OCO3)C(=O)[C@H]2CCCN2C1=O,5.4,n/a
CCCC[C@@H]1NC(=O)[C@H](CC(C)C)N(C)C(=O)CN(Cc2ccccc2)C(=O)[C@H](C)NC(=O)CN(CCCCc2ccccc2)C(=O)[C@H]2CCCN2C1=O,1.7,n/a
CCCC[C@@H]1NC(=O)[C@H](CC(C)C)N(C)C(=O)CN(CCOc2ccccc2)C(=O)[C@H](CC(C)C)NC(=O)CN(Cc2ccc3c(c2)OCO3)C(=O)[C@H]2CCCN2C1=O,0.087,n/a
CCCC[C@@H]1NC(=O)[C@H](CC(C)C)N(C)C(=O)CN(CCCc2cnn(C)c2)C(=O)[C@H](Cc2ccc3ccccc3c2)NC(=O)CN(CC)C(=O)[C@H]2CCCN2C1=O,3.4,n/a

A selection of 3 entries from above:

| SMILES | PAMPA (10^-6 cm/s) | Caco-2 (10^-6 cm/s) |
|---|---|---|
| CCCC[C@@H]1NC(=O)[C@H](CC(C)C)N(C)C(=O)CN(CCCc2ccccc2)C(=O)[C@H](C)NC(=O)CN(Cc2ccc3c(c2)OCO3)C(=O)[C@H]2CCCN2C1=O | 5.4 | n/a |
| CCCC[C@@H]1NC(=O)[C@H](CC(C)C)N(C)C(=O)CN(CCCc2cnn(C)c2)C(=O)[C@H](C)NC(=O)CN(Cc2ccc3c(c2)OCO3)C(=O)[C@H]2CCCN2C1=O | 0.59 | n/a |
| CCCC[C@@H]1NC(=O)[C@H](CC(C)C)N(C)C(=O)CN(Cc2ccccc2)C(=O)[C@H](C)NC(=O)CN(CC(C)C)C(=O)[C@H]2CCCN2C1=O | 10 | 3.9 |